Literature values in US8598128B2, “Fructosylated puerarin, and preparation method and use thereof” (priority 2010, dated 2013).

Details: literature; cited from earlier work

With “semi-emulsified glycosyl-α-(1,4)-puerarin” as the substance, how does the “water solubility compared with puerarin” value read?
Its value is 12 times.
